Our source for the IC50 values is PMC11985910 (Nature Communications, 2025).

By UniProt entry, the sequences of proteins in these tests, tags left out. Residues count along the entry.
UniProt P05164, 279-745: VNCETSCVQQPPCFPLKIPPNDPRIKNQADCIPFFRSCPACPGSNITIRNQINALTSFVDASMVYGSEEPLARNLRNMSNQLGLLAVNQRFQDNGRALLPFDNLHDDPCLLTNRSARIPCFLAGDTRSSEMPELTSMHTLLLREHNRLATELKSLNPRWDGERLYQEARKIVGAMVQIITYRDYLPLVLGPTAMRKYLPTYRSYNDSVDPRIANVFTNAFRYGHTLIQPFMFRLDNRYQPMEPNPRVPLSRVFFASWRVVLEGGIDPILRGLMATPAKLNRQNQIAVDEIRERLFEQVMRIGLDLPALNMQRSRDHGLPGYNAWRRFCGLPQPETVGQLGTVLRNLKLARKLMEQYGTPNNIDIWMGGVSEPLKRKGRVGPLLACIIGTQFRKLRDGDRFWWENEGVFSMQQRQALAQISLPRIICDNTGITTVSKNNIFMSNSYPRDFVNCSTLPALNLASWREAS
UniProt P05164, 165-273: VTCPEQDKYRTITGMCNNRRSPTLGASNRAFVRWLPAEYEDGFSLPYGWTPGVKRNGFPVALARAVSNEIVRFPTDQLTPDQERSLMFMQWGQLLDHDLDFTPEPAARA

The target in experiment [1] is T1, MPO (Homo sapiens, UniProt P05164). Description: MPO-catalysed H2O2 consumption, H2O2-specific electrode. The experiment is classed as biochemical.
In experiment [2] the target is T1, MPO. Kind of experiment: MPO chlorination assay. The class given is biochemical.

For the compound `COc1ccc(Cl)cc1-c1cc(=O)[nH]c(=S)n1CC(N)=O` [PF06282999, 2-(6-(5-Chloro-2-methoxyphenyl)-4-oxo-2-thioxo-3,4-dihydropyrimidin-1(2H)-yl)acet amide, reference compound], the IC50 in experiment [1] is 630 nM; in experiment [2], 1230 nM.
